Biological target: human NaV1.6 (hNaV1.6) (Homo sapiens (Human), UniProt Q9UQD0)
Experiment: INaL inhibition at hNaV1.6, PatchXpress electrophysiology
Type: cell-based
Settings: HEK293, read-out: INaL v1.6 (1 μM, % Inhibition)
Description: Functional characterization of exemplary compounds to modulate INaL expressed by the Nay 1.6 voltage-gated sodium channel was accomplished using the PatchXpress™ high throughput electrophysiology platform (Molecular Devices, Sunnyvale, Calif.). HEK-293 cells expressing recombinant, human NaV1.6 (hNaV1.6) were grown in DMEM/high-glucose Dulbecco's modified, 10% FBS, 2 mM sodium pyruvate, 10 mM HEPES and 400 μg/mL G418. Cells were grown to 50%-80% confluency prior to harvesting. […] The onboard liquid handling facility of the PatchXpress was used for dispensing cells and applying test compounds. Nay late currents were evoked by the application of 300 nM ATX-II. […] INaL amplitude and stability were determined by analyzing the mean current amplitude over the final 20 ms of the test pulse. […] Percent steady-state inhibition of INaL was calculated as: [(INaL_compound)/(INaL_control)]*100, where INaL_compound and INaL_control represent INaL recorded in the presence or absence of compound, respectively.

Sequences of proteins named here, by UniProt entry; tags and fusion partners are left off.
UniProt Q9UQD0, whole entry: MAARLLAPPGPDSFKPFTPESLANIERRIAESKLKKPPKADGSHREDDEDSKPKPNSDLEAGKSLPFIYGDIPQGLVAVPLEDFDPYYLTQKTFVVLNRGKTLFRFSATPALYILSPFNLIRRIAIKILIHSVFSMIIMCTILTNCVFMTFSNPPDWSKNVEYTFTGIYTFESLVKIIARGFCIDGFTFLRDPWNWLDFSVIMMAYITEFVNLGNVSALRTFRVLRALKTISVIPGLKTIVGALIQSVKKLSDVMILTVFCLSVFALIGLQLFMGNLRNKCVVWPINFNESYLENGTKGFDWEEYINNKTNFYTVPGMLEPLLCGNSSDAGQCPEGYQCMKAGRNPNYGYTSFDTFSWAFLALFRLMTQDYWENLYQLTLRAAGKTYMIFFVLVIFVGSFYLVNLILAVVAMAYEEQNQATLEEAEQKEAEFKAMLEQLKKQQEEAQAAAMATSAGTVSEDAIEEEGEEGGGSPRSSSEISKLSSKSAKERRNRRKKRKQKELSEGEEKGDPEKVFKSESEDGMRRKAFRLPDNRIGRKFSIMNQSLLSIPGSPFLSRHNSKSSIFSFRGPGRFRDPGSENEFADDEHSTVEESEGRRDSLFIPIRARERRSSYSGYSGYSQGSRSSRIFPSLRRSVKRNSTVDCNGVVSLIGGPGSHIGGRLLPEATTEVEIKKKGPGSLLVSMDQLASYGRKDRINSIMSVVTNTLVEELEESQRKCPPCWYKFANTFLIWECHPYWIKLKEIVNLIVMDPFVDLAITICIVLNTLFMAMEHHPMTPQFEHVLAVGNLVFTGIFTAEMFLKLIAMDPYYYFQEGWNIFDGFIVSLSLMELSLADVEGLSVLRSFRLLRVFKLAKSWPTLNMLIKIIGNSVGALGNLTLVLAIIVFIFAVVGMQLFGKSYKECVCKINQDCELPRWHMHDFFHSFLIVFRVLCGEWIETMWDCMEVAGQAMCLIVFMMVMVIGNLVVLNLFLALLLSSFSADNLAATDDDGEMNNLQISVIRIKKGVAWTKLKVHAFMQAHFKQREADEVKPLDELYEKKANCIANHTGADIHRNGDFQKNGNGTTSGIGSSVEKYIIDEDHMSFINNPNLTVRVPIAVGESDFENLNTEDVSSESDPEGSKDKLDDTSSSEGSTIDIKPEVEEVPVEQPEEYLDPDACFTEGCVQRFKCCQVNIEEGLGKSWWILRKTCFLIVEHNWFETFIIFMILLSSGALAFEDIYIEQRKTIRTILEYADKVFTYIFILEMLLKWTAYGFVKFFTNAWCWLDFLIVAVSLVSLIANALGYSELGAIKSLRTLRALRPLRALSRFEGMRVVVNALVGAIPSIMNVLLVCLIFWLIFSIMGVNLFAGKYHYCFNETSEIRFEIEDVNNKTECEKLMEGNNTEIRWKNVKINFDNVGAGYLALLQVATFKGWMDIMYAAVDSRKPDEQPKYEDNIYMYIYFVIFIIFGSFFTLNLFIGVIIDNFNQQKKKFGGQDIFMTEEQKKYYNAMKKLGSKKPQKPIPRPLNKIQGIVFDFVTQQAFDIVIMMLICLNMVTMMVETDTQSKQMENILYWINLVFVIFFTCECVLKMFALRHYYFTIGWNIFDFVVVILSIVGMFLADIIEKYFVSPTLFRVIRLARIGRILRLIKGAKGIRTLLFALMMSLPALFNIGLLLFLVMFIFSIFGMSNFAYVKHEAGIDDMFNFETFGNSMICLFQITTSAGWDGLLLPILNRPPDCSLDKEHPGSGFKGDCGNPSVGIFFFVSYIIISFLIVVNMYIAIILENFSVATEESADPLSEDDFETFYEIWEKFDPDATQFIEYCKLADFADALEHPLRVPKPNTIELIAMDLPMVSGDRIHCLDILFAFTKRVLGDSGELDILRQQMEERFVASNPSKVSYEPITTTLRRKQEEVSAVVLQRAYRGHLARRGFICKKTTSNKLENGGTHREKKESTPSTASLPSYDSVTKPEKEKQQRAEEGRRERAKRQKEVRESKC

**Q.** Which inhibition at 1 µM does the source give for `CN(C)c1nnc2cnc(-c3ccc(OC(F)(F)F)cc3)cn12` [Compound 153] here?
**A.** The inhibition at 1 µM was less than 30%.
